Results on six compounds are retold here after ChEMBL document CHEMBL1138044, “4-amido-2-aryl-1,2,4-triazolo[4,3-a]quinoxalin-1-ones as new potent and selective human A3 adenosine receptor antagonists. synthesis, pharmacological evaluation, and ligand-receptor modeling studies” (J Med Chem, 2006).

The target of the first experiment is Adenosine receptor A2a (Homo sapiens, UniProt P29274). Kind of experiment: Inhibition of [3H]NECA binding to human adenosine A2A receptor at 10 uM.
Settings: not given
In general, inhibition refers to the drop in the measured response relative to a control, in per cent. Read a high inhibition as a response far below the control. `COc1ccc(-n2nc3c(NC(=O)C(c4ccccc4)c4ccccc4)nc4ccccc4n3c2=O)cc1` returned an inhibition of 27%.

A further experiment concerns Adenosine receptor A2a (Bos taurus). Kind of experiment: Inhibition of [3H]CGS 21680 binding to adenosine A2A receptor in bovine striatal membranes at 10 uM. As to conditions: Striatum, Membrane.
Consider `COc1ccc(-n2nc3c(N(C(=O)c4ccccc4)C(=O)c4ccccc4)nc4c([N+](=O)[O-])cccc4n3c2=O)cc1`, for which the inhibition worked out at 0%.

In the case of `O=C(c1ccccc1)N(C(=O)c1ccccc1)c1nc2ccccc2n2c(=O)n(-c3ccccc3)nc12`, the inhibition was found to be 19%.

In turn, `COc1ccc(-n2nc3c(NC(C)=O)nc4ccccc4n3c2=O)cc1` showed an inhibition of 0%.

Regarding `COc1ccc(-n2nc3c(NC(=O)c4ccccc4)nc4c(N)cccc4n3c2=O)cc1`, the inhibition came out at 16%.

In the case of `COc1ccc(-n2nc3c(NC(=O)C(c4ccccc4)c4ccccc4)nc4ccccc4n3c2=O)cc1`, the inhibition was 28.5%.

In turn, `COc1ccc(-n2nc3c(NC(C)=O)nc4c(N)cccc4n3c2=O)cc1` returned an inhibition of 20%.
